By UniProt entry, the sequences of proteins in these tests, tags left out.
UniProt P08908, whole entry: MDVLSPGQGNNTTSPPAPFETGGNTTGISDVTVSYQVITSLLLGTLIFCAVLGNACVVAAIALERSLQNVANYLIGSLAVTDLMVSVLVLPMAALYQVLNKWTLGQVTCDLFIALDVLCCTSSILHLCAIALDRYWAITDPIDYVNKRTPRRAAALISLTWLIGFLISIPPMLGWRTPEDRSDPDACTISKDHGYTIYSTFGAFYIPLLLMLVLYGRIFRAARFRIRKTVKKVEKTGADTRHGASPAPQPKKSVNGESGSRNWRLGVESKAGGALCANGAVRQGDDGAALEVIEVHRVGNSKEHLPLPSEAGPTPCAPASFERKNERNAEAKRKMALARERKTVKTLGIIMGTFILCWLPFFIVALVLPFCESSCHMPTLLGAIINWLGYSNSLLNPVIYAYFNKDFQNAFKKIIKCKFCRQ

In ChEMBL document CHEMBL2163296 (J Med Chem, 2012):

Target: 5-hydroxytryptamine receptor 1A (Homo sapiens, UniProt P08908)

SMILES: CNC(=O)c1cc(Oc2ccc(NC(=O)Nc3ccc(Cl)c(C(F)(F)F)c3)cc2)ccn1 [SORAFENIB]
- pKi: 5.93

pKi: −log10 of the molar value.
